Measured values from ChEMBL document CHEMBL1124267, “Potential antitumor agents. 54. Chromophore requirements for in vivo antitumor activity among the general class of linear tricyclic carboxamides” (J Med Chem, 1988).

System: poly[d(A-T)] / poly[d(G-C)]
Assay: Binding constant for poly[d(A-T)] / poly[d(G-C)] by ethidium displacement

- Log K: 6.14 and 6.23
SMILES: CN(C)CCNC(=O)c1cccn2c(=O)c3ccccc3nc12

“And” between values parts separate entries of the source, which are not always exact repeats. Equal entries are not always repeated.
